tested on: AP2M1 MU; format: binding, human

| Substance | PSSM value of the substitution, averaged over the two overlapping peptides |
| --- | --- |
| VSDIDYVPLKSATA(averaged) S2Y (VYDIDYVPLKSATA) | 0.2627 |
| VSDIDYVPLKSATA(averaged) S11A (VSDIDYVPLKAATA) | 0.0008274 |
| VSDIDYVPLKSATA(averaged) S11D (VSDIDYVPLKDATA) | 0.4575 |
| VSDIDYVPLKSATA(averaged) S11E (VSDIDYVPLKEATA) | 0.0007686 |
| VSDIDYVPLKSATA(averaged) S11F (VSDIDYVPLKFATA) | 0.007837 |
| VSDIDYVPLKSATA(averaged) S11G (VSDIDYVPLKGATA) | 0.0001367 |
| VSDIDYVPLKSATA(averaged) S11H (VSDIDYVPLKHATA) | 3.368e-5 |
| VSDIDYVPLKSATA(averaged) S11I (VSDIDYVPLKIATA) | 1.716e-5 |
| VSDIDYVPLKSATA(averaged) S11K (VSDIDYVPLKKATA) | 0.01931 |
| VSDIDYVPLKSATA(averaged) S11L (VSDIDYVPLKLATA) | 0.001654 |
| VSDIDYVPLKSATA(averaged) S11M (VSDIDYVPLKMATA) | 0 |
| VSDIDYVPLKSATA(averaged) S11N (VSDIDYVPLKNATA) | 0.02971 |
| VSDIDYVPLKSATA(averaged) S11P (VSDIDYVPLKPATA) | 0.007236 |
| VSDIDYVPLKSATA(averaged) S11Q (VSDIDYVPLKQATA) | 0.4502 |
| VSDIDYVPLKSATA(averaged) S11R (VSDIDYVPLKRATA) | 0 |
| VSDIDYVPLKSATA(averaged) S11S | 0.002623 |
| VSDIDYVPLKSATA(averaged) S11T (VSDIDYVPLKTATA) | 1.716e-5 |
| VSDIDYVPLKSATA(averaged) S11V (VSDIDYVPLKVATA) | 0.007984 |
| VSDIDYVPLKSATA(averaged) S11W (VSDIDYVPLKWATA) | 0.007112 |
| VSDIDYVPLKSATA(averaged) S11Y (VSDIDYVPLKYATA) | 0.007115 |
| VSDIDYVPLKSATA(averaged) T13A (VSDIDYVPLKSAAA) | 0.002125 |

| Substance | PSSM value of the substitution, averaged over the two overlapping peptides |
| --- | --- |
| VSDIDYVPLKSATA(averaged) T13D (VSDIDYVPLKSADA) | 0.00856 |
| VSDIDYVPLKSATA(averaged) T13E (VSDIDYVPLKSAEA) | 0.02009 |
| VSDIDYVPLKSATA(averaged) T13F (VSDIDYVPLKSAFA) | 0.1122 |
| VSDIDYVPLKSATA(averaged) T13G (VSDIDYVPLKSAGA) | 0.0009749 |
| VSDIDYVPLKSATA(averaged) T13H (VSDIDYVPLKSAHA) | 0.2618 |
| VSDIDYVPLKSATA(averaged) T13I (VSDIDYVPLKSAIA) | 0.00143 |
| VSDIDYVPLKSATA(averaged) T13K (VSDIDYVPLKSAKA) | 0 |
| VSDIDYVPLKSATA(averaged) T13L (VSDIDYVPLKSALA) | 0.002153 |
| VSDIDYVPLKSATA(averaged) T13M (VSDIDYVPLKSAMA) | 0.2245 |
| VSDIDYVPLKSATA(averaged) T13N (VSDIDYVPLKSANA) | 0.0004027 |
| VSDIDYVPLKSATA(averaged) T13P (VSDIDYVPLKSAPA) | 0.01385 |
| VSDIDYVPLKSATA(averaged) T13Q (VSDIDYVPLKSAQA) | 0.2617 |
| VSDIDYVPLKSATA(averaged) T13R (VSDIDYVPLKSARA) | 0.002792 |
| VSDIDYVPLKSATA(averaged) T13S (VSDIDYVPLKSASA) | 0.03255 |
| VSDIDYVPLKSATA(averaged) T13T | 0.0127 |
| VSDIDYVPLKSATA(averaged) T13V (VSDIDYVPLKSAVA) | 0.01576 |
| VSDIDYVPLKSATA(averaged) T13W (VSDIDYVPLKSAWA) | 0.02159 |
| VSDIDYVPLKSATA(averaged) T13Y (VSDIDYVPLKSAYA) | 0.004843 |
| VSDIDYVPLKSATA(averaged) V1A (ASDIDYVPLKSATA) | 0 |
| VSDIDYVPLKSATA(averaged) V1D (DSDIDYVPLKSATA) | 0.000188 |
| VSDIDYVPLKSATA(averaged) V1E (ESDIDYVPLKSATA) | 0.01737 |

| Substance | PSSM value of the substitution, averaged over the two overlapping peptides |
| --- | --- |
| VSDIDYVPLKSATA(averaged) V1F (FSDIDYVPLKSATA) | 0.0006898 |
| VSDIDYVPLKSATA(averaged) V1H (HSDIDYVPLKSATA) | 0.4257 |
| VSDIDYVPLKSATA(averaged) V1I (ISDIDYVPLKSATA) | 0.04855 |
| VSDIDYVPLKSATA(averaged) V1K (KSDIDYVPLKSATA) | 0.0001655 |
| VSDIDYVPLKSATA(averaged) V1L (LSDIDYVPLKSATA) | 8.8387e-5 |
| VSDIDYVPLKSATA(averaged) V1M (MSDIDYVPLKSATA) | 0.0001577 |
| VSDIDYVPLKSATA(averaged) V1N (NSDIDYVPLKSATA) | 0.0002899 |
| VSDIDYVPLKSATA(averaged) V1P (PSDIDYVPLKSATA) | 0.005836 |
| VSDIDYVPLKSATA(averaged) V1Q (QSDIDYVPLKSATA) | 0.0001975 |
| VSDIDYVPLKSATA(averaged) V1R (RSDIDYVPLKSATA) | 0.4088 |
| VSDIDYVPLKSATA(averaged) V1S (SSDIDYVPLKSATA) | 0.003253 |
| VSDIDYVPLKSATA(averaged) V1T (TSDIDYVPLKSATA) | 0.005968 |
| VSDIDYVPLKSATA(averaged) V1V | 0.006376 |
| VSDIDYVPLKSATA(averaged) V1W (WSDIDYVPLKSATA) | 0.07578 |
| VSDIDYVPLKSATA(averaged) V1Y (YSDIDYVPLKSATA) | 0 |
| VSDIDYVPLKSATA(averaged) V7A (VSDIDYAPLKSATA) | 0.004325 |
| VSDIDYVPLKSATA(averaged) V7D (VSDIDYDPLKSATA) | 0 |
| VSDIDYVPLKSATA(averaged) V7E (VSDIDYEPLKSATA) | 0.2865 |
| VSDIDYVPLKSATA(averaged) V7F (VSDIDYFPLKSATA) | 0.4299 |
| VSDIDYVPLKSATA(averaged) V7G (VSDIDYGPLKSATA) | 0 |
| VSDIDYVPLKSATA(averaged) V7H (VSDIDYHPLKSATA) | 0.06898 |

| Substance | PSSM value of the substitution, averaged over the two overlapping peptides |
| --- | --- |
| VSDIDYVPLKSATA(averaged) V7I (VSDIDYIPLKSATA) | 0.003008 |
| VSDIDYVPLKSATA(averaged) V7K (VSDIDYKPLKSATA) | 0.01977 |
| VSDIDYVPLKSATA(averaged) V7L (VSDIDYLPLKSATA) | 0.1296 |
| VSDIDYVPLKSATA(averaged) V7M (VSDIDYMPLKSATA) | 0.0006304 |
| VSDIDYVPLKSATA(averaged) V7N (VSDIDYNPLKSATA) | 0 |
| VSDIDYVPLKSATA(averaged) V7P (VSDIDYPPLKSATA) | 0 |
| VSDIDYVPLKSATA(averaged) V7Q (VSDIDYQPLKSATA) | 0.001583 |
| VSDIDYVPLKSATA(averaged) V7R (VSDIDYRPLKSATA) | 0 |
| VSDIDYVPLKSATA(averaged) V7S (VSDIDYSPLKSATA) | 0 |
| VSDIDYVPLKSATA(averaged) V7T (VSDIDYTPLKSATA) | 0 |
| VSDIDYVPLKSATA(averaged) V7V | 0.05527 |
| VSDIDYVPLKSATA(averaged) V7W (VSDIDYWPLKSATA) | 0.0001944 |
| VSDIDYVPLKSATA(averaged) V7Y (VSDIDYYPLKSATA) | 0.0002298 |
| VSDIDYVPLKSATA(averaged) Y6A (VSDIDAVPLKSATA) | 0 |
| VSDIDYVPLKSATA(averaged) Y6D (VSDIDDVPLKSATA) | 0 |
| VSDIDYVPLKSATA(averaged) Y6E (VSDIDEVPLKSATA) | 0 |
| VSDIDYVPLKSATA(averaged) Y6F (VSDIDFVPLKSATA) | 0 |
| VSDIDYVPLKSATA(averaged) Y6G (VSDIDGVPLKSATA) | 0 |
| VSDIDYVPLKSATA(averaged) Y6H (VSDIDHVPLKSATA) | 0 |
